{"sequences": {"note": "Chains of the proteins cited; added tags and fusions are not shown. Residues count along the entry.", "UniProt P02768, 25-609": "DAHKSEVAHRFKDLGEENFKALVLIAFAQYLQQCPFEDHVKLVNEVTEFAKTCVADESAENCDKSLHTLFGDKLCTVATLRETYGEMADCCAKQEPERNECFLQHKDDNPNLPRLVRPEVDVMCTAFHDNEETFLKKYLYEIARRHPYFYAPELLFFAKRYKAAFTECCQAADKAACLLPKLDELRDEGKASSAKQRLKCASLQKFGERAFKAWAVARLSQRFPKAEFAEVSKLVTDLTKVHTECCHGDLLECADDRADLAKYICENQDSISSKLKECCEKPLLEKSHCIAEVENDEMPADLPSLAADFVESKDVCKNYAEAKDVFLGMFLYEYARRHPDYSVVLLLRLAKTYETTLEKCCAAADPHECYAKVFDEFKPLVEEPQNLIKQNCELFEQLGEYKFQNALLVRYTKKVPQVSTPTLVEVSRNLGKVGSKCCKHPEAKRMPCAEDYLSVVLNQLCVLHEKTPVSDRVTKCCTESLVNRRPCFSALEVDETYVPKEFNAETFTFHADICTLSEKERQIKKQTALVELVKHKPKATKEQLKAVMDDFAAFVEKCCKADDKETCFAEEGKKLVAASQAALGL"}, "source": "patent US12377176B2", "about": "“Cancer diagnostic imaging agents” (Technische Universität München, priority 2019, dated 2025)", "origin": "cited, not measured here", "target": "T1, HSA (Homo sapiens, UniProt P02768)", "T1 construct": "purchased H13H-2433", "settings": "literature value of human serum albumin binding (Yamazaki 2004); calibration reference; cited from earlier work"}
{"molecule": "NC(=O)N1c2ccccc2C=Cc2ccccc21", "note": "[Carbamazepine]", "values": [{"measurement": "Lit. HSA %", "result": 75.00, "unit": "%"}]}
